Test system: glucosyltransferase
Assay: Inhibition of water-insoluble glucan formation by crude glucosyltransferase (14C-sucrose, scintillation counting)
Format: biochemical, Streptococcus mutans OMZ 176
Conditions: Water-insoluble glucan formation vs control, 60 minutes at 37°C, pH 6.8
Method: Crude glucosyltransferase was refined from Streptococcus mutans OMZ 176 according to the method described by Mukasa and Slads in Infect. Immun., 8, 555 (1973) and 9, 419 (1974).
The above GTF, labeled sucrose and the tea polyphenol compounds were mixed together to the following final concentrations, and was regulated with a 50 mM phosphate buffer (with pH 6.8). GTF: 0.34 mg protein/ml 0.1 mM (¹⁴C) sucrose: 0.1 »Ci/»l Present agent: 1 to 10 mg/ml or 1 to 10 mM.
Twenty (20) »l of the mixture solution were subjected to a reaction for 60 minutes at 37°C. After the completion of the reaction, 5 »l of the reaction mixture and 5 »l of supernatant obtained by centrifugation of the reaction mixture at 5,500 x g for 3 minutes were applied to a filter paper respectively, and then developed with a developing solution of butanol-pyridine-water (6:4:3), followed by counting with a scintillation counter. The amount of water-insoluble glucan was found by a difference between the measurements of the reaction mixture and the supernatant. The GTF inhibiting ability is expressed in terms of the rate of inhibiting the formation of water-insoluble glucan with respect to a control to which the tea polyphenol compounds were not added.

Substance	Inhibition (%) (sample concentration 1.0 mM)	Inhibition (%) (sample concentration 10.0 mM)
(-)-Epigallocatechin	13%	25%
(-)-Epigallocatechin gallate	42%	75%
